# Data as given in PubChem BioAssay (EPA / NIEHS).
# Sequences of proteins named here, by UniProt entry; tags and fusion partners are left off.
# UniProt P03372, whole entry: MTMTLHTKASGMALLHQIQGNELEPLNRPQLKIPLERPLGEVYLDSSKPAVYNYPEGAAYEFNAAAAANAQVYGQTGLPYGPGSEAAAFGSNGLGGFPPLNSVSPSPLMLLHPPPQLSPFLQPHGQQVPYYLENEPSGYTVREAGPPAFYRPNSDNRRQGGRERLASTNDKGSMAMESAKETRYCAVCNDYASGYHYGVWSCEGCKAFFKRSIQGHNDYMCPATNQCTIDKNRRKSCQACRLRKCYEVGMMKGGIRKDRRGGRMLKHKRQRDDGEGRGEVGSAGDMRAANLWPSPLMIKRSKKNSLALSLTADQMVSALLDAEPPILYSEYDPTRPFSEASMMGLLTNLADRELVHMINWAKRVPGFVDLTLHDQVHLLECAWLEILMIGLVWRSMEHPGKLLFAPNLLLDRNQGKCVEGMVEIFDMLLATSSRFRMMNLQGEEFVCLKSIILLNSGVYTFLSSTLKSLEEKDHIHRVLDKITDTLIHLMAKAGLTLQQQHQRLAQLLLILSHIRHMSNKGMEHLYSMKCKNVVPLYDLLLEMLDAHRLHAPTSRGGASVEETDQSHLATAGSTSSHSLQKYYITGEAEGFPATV
# UniProt P01375, whole entry: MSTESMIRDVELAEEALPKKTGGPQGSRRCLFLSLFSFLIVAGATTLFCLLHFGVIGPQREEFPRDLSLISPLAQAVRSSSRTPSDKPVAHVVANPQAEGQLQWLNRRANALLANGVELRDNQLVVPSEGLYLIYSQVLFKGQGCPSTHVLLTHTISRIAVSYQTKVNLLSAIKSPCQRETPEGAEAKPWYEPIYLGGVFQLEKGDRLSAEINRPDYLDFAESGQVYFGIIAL
# The list shows a part of the results, in another mix than the full data. Records with an inconclusive call do not appear. Active and inactive are the calls of the source. The calls were made as follows, unless noted: active = hit-call score of the fitted dose curve at least 0.9, where 1 is the maximum; inactive = score below 0.9.
# How the values were obtained:
# DIO2 (gene 1734) = test: CCTE_GLTED_hDIO2: CCTE's human Deiodinase 2 (DIO2) Inhibition Assay, Great Lakes Toxicology and Ecology Division (GLTED) Lab (AID 2284050; active = hit-call score of the fitted dose curve at least 0.9, where 1 is the maximum)
# Method in brief: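 Triplicate cell-free incubations (3 h) of human DIO2 with chemical preceded colorimetric Sandell-Kolthoff quantitation of liberated iodide; DMSO served as negative control for curve fitting.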
# DIO3 (gene 1735) = test: CCTE_GLTED_hDIO3: CCTE's human Deiodinase 3 (DIO3) Inhibition Assay, Great Lakes Toxicology and Ecology Division (GLTED) Lab (AID 2284055; active = hit-call score of the fitted dose curve at least 0.9, where 1 is the maximum;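 also: potency is for inhibition seen as loss of released iodide signal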)
# Method in brief: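 Steps: incubate adenovirus-produced hDIO3 with chemical for 3 hours; detect freed iodide via cerium-arsenic Sandell-Kolthoff colorimetry; compare with DMSO baseline.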
# [1] = biological target: Estrogen receptor (Homo sapiens) (UniProt P03372); test: CCTE_Deisenroth_AIME_384WELL_LUC_Inactive: CCTE's 384-well Estrogen Receptor Transactivation Assay without AIME metabolic competence (ERTA luciferase; metabolism negative), Deisenroth Lab (AID 2284038; active = hit-call score of the fitted dose curve at least 0.9, where 1 is the maximum;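 also: VM7Luc4E2 breast cells given medium preincubated 2 h with S9-free microspheres; hits raise estrogen receptor luciferase signal so potencies reflect agonists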)
# Method in brief: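 Metabolism-negative mode: AIME lids stamped in alginate-water, no hepatic S9. 2 h chemical incubation → medium onto VM7Luc4E2 ERTA, 24 h. Readout luciferase luminescence; gain-of-signal fit vs 17beta-estradiol. Conc. 0.002 - 200 uM.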
# [2] = biological target: Estrogen receptor (Homo sapiens) (UniProt P03372); test: CCTE_Deisenroth_AIME_384WELL_LUC_Shift: CCTE's 384-well Estrogen Receptor Transactivation Assay with AIME metabolic competence data shift (ERTA luciferase; difference in metabolism positive and negative), Deisenroth Lab (AID 2284041);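 also: shift is response with S9 minus without S9 so positive means metabolism raised ER signal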
# Method in brief: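 Here, parent compounds undergo 2 h phase I metabolism by PB/BNF-induced rat S9 before 24 h transactivation in VM7Luc4E2 cells; the curve models S9-positive minus S9-negative response over a 10-point series.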
# [3] = CCTE_Deisenroth_AIME_384WELL_CTox_Inactive: Cytotoxicity Assessment (CTOX) in CCTE's 384-well Estrogen Receptor Transactivation Assay without AIME metabolic competence (metabolism negative), Deisenroth Lab (AID 2284039; active = hit-call score of the fitted dose curve at least 0.9, where 1 is the maximum;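 also: cell viability via live-cell protease substrate cleaved to fluorescent probe; cells exposed 24 h to medium preincubated 2 h with alginate-water beads without S9; loss of fluorescence signal means loss of viability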)
# Method in brief: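 VM7Luc4E2 cells, metabolism-negative arm: test chemicals (0.002–200 uM, 10 points) pre-incubated 2 h with alginate-water microspheres, then medium transferred to cells for 24 h. Viability read as protease-substrate cleavage to fluorescent probe; loss-of-signal, bidirectional fitting.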
# [4] = CCTE_Shafer_MEA_acute_LDH: CCTE's Lactate Dehydrogenase Assay for Cytotoxicity in the Neural Acute Assay, Shafer Lab (AID 2284086; active = hit-call score of the fitted dose curve at least 0.9, where 1 is the maximum;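 also: active means LDH release rises above DMSO vehicle level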)
# Method in brief: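 Cytotoxicity readout: spectrophotometric LDH activity in supernatant of rat primary cortical neurons, post-plating day 13 or 15, sampled after 40 min compound exposure; signal gain relative to DMSO baseline.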
# [5] = BSK_BT_PBMCCytotoxicity: PBMC Cytotoxicity Assessment in the BioMAP Diversity Plus: BT Assay (AID 2284225); conditions: primary human B cells with PBMC;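 also: PBMC viability measured by Alamar Blue dye reduction fluorescence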
# Method in brief: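 Primary human co-culture of B cells and PBMC, pre-dosed 1 h then activated with SEB and TSST-1. Cytotoxicity is taken from Alamar Blue dye reduction, added for 6 h at the end of a 90 h incubation.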
# [6] = read-out: Secreted IgG (sIgG), gene 3500; test: BSK_BT_sIgG: BioMAP Diversity Plus: BT Assay for Secreted IgG (sIgG) Biomarker Activity (AID 2284226); conditions: primary human B cells with PBMC
# Method in brief: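 In this multiplexed co-culture system, ELISA quantifies sIgG 24 h post-treatment. Endpoint analysis uses positive fitting direction, DMSO negative control.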
# [7] = BSK_BT_Bcell_Proliferation: Viability Assessment in the BioMAP Diversity Plus: BT Assay for B cell Proliferation (AID 2284227); conditions: primary human B cells with PBMC
# Method in brief: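 Human B cells co-cultured with PBMC were dosed with test chemicals and relative cell number was quantified by SRB staining at 72 h. Cells were fixed in 10% TCA, stained with 0.1% SRB and read at 560 nm. Activity was fitted in the positive direction against DMSO.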
# [8] = read-out: Interleukin 6 (IL6), IL6 (gene 3569); test: BSK_BT_xIL6: BioMAP Diversity Plus: BT Assay for Interleukin 6 (IL6) Biomarker Activity (AID 2284228); conditions: primary human B cells with PBMC
# Method in brief: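 Human B cell plus PBMC co-culture exposed to test chemical for 24 h; secreted IL-6 quantified by Luminex xMAP bead assay. Activity fitted in the positive direction against DMSO as negative control and baseline.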
# [9] = read-out: Interleukin 17A (IL17A), IL17A (gene 3605); test: BSK_BT_xIL17A: BioMAP Diversity Plus: BT Assay for Interleukin 17A (IL17A) Biomarker Activity (AID 2284229); conditions: primary human B cells with PBMC
# Method in brief: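 B cells co-cultured with PBMC were exposed to test chemicals, and secreted IL-17A was quantified 24 h after dosing by Luminex xMAP bead immunoassay. Activity was fitted in the gain direction against DMSO as baseline.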
# [10] = read-out: Tumor necrosis factor (Homo sapiens) (UniProt P01375); test: BSK_BT_xTNFa: BioMAP Diversity Plus: BT Assay for Tumor necrosis factor alpha (TNF-alpha) Biomarker Activity (AID 2284230); conditions: primary human B cells with PBMC
# Method in brief: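 B cells with PBMC in co-culture, dosed and sampled at 24 h; secreted TNF-alpha measured by Luminex xMAP bead assay. Activity fitted in the gain direction against DMSO as negative control and baseline.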
# [11] = read-out: Vascular cell adhesion molecule 1 (VCAM1), VCAM1 (gene 7412); test: BSK_MyoF_VCAM1: BioMAP Diversity Plus: MyoF Assay for Vascular cell adhesion molecule 1 (VCAM1) Biomarker Activity (AID 2284231); conditions: primary human lung fibroblasts
# Method in brief: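 Primary human lung fibroblasts were dosed with test chemical for 24 h, then cell-surface VCAM-1 was measured by ELISA. Activity was fitted in the positive direction against DMSO as negative control and baseline.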
# [12] = read-out: Collagen I, COL1A1 (gene 1277); test: BSK_MyoF_CollagenI: BioMAP Diversity Plus: MyoF Assay for Collagen I Biomarker Activity (AID 2284238); conditions: primary human lung fibroblasts
# Method in brief: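 Human lung fibroblasts were exposed to test chemical for 24 h, then Collagen I was quantified by ELISA. Activity was fitted in the increasing direction against DMSO as the negative control and baseline.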
# [13] = read-out: Collagen III, COL3A1 (gene 1281); test: BSK_MyoF_CollagenIII: BioMAP Diversity Plus: MyoF Assay for Collagen III Biomarker Activity (AID 2284239); conditions: primary human lung fibroblasts
# Method in brief: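 Human lung fibroblasts were dosed with chemicals and, 24 hours later, collagen III was measured by ELISA. Activity was fitted in the positive direction against the DMSO negative-control baseline.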
# [14] = read-out: Interleukin 17F (IL17F), IL17F (gene 112744); test: BSK_BT_xIL17F: BioMAP Diversity Plus: BT Assay for Interleukin 17F (IL17F) Biomarker Activity (AID 2284243); conditions: primary human B cells with PBMC
# Method in brief: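 B cell/PBMC co-culture (human primary), 24 h compound exposure; sIL-17F by Luminex xMAP; gain-of-signal fit vs DMSO baseline.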
# [15] = read-out: Actin alpha 1 (ACTA1), ACTA1 (gene 58); test: BSK_MyoF_ACTA1: BioMAP Diversity Plus: MyoF Assay for Actin alpha 1 (ACTA1) Biomarker Activity (AID 2284244); conditions: primary human lung fibroblasts
# Method in brief: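 MyoF fibroblast system (human lung); a-SMA quantified via ELISA at 24 h; DMSO-normalised, gain-of-signal endpoint.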
# [16] = read-out: Interleukin 2 (IL2), IL2 (gene 3558); test: BSK_BT_xIL2: BioMAP Diversity Plus: BT Assay for Interleukin 2 (IL2) Biomarker Activity (AID 2284245); conditions: primary human B cells with PBMC
# Method in brief: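 Co-cultures of primary human B cells and PBMC are treated with chemical and sampled at 24 h. IL-2 secretion is quantified by Luminex xMAP, with DMSO-treated wells as baseline.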
# [17] = read-out: Basic fibroblast growth factor (bFGF), FGF2 (gene 2247); test: BSK_MyoF_bFGF: BioMAP Diversity Plus: MyoF Assay for Basic fibroblast growth factor (bFGF) Biomarker Activity (AID 2284246); conditions: primary human lung fibroblasts
# Method in brief: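 Fibroblasts from human lung, 24 h dosing. bFGF by ELISA; gain of signal over DMSO.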
# [18] = read-out: Collagen IV, COL4A1 (gene 1282); test: BSK_MyoF_CollagenIV: BioMAP Diversity Plus: MyoF Assay for Collagen IV Biomarker Activity (AID 2284247); conditions: primary human lung fibroblasts
# Method in brief: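 Lung fibroblasts (human primary) treated with chemicals were assayed after 24 h for Collagen IV using an ELISA, with DMSO serving as negative control and baseline for a positive-direction fit.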
smiles,measurement,setting,value
Cc1cccc([N+](=O)[O-])c1[N+](=O)[O-],AC50,DIO2 (gene 1734),active: 31.5 µM
same,AC50,DIO3 (gene 1735),active: 26 µM
O=[N+]([O-])OCC(CO[N+](=O)[O-])(CO[N+](=O)[O-])CO[N+](=O)[O-],outcome,[1],inactive
same,outcome,[2],inactive
Cc1c([N+](=O)[O-])cccc1[N+](=O)[O-],outcome,[3],inactive
CC(C)OP(C)(=O)OC(C)C,outcome,[1],inactive
same,outcome,[3],inactive
same,outcome,[2],inactive
same,outcome,[4],inactive
Cc1ccc([N+](=O)[O-])cc1[N+](=O)[O-],outcome,[3],inactive
Cc1ccc([N+](=O)[O-])c([N+](=O)[O-])c1,outcome,[5],inactive
same,AC50,[6],active: 20 µM
same,AC50,[7],active: 20 µM
same,AC50,[8],active: 9.75 µM
same,AC50,[9],active: 8.79 µM
same,AC50,[10],active: 30.3 µM
same,AC50,[11],active: 29.3 µM
same,outcome,[12],inactive
same,outcome,[13],inactive
same,AC50,[14],active: 20 µM
same,outcome,[15],inactive
same,outcome,[16],inactive
same,AC50,[17],active: 0.591 µM
same,outcome,[18],inactive
COP(C)(=O)OC,outcome,[1],inactive
same,outcome,[3],inactive
same,outcome,[2],inactive
O=[N+]([O-])c1cccc([N+](=O)[O-])c1,outcome,[1],inactive
same,outcome,[3],inactive
same,outcome,[2],inactive
